In US20220362278A1, “RENAL TARGETING-TYPE DRUG DELIVERY CARRIER HAVING EXCELLENT BIODEGRABILITY” (priority 2019, published 2022):

Experiments:
[1] = 60 min after intravenous administration
[2] = Releasability of serine and biodegradability: PD-10 fractionation of kidney homogenate radioactivity; settings: for radioactivity in high / low molecular weight fraction, kidney homogenate: PD-10 column; for release of serine in the kidney: after intravenous administration (3 hr)
Experimental: The kidney after blood removal was immediately ice-cooled, purified water (4 mL) was added and homogenized. A saturated potassium chloride solution (1 mL) was added to the prepared kidney homogenate, and the mixture was allowed to stand at 4° C. overnight and then centrifuged. The centrifuged supernatant (1 mL) was developed on a PD-10 column with 0.1 M acetate buffer (pH 6.0), and the radioactivity of the fraction was measured.

[3] = 3 hr after intravenous administration, FIG. 2
[4] = 3 hr after intravenous administration

FITC-labeled serine-modified poly-L-lysine [FITC-labeled compound (Ia)]
fluorescence in kidney section ([1]; FIG. 3(A)): remarkably high in the renal cortex of renal medulla | distribution in kidney (enlarged image of renal cortex) ([1]; FIG. 3(B)): Strong fluorescence derived from FITC-labeled compound (Ia) was observed in the proximal tubules

^111In-labeled PAMAM(G3)
decomposition in the kidney [2, 4]: hardly decomposed in the kidney | radioactivity in high / low molecular weight fraction, kidney homogenate [2, 4]: mainly on the high molecular weight fraction side

^111In-labeled serine-modified PAMAM(G3)
radioactivity in high / low molecular weight fraction, kidney homogenate [2, 4]: mainly on the high molecular weight fraction side, relatively low molecular weight fraction side | release of serine in the kidney [2]: released almost no serine in the kidney

^111In-labeled serine-modified poly-L-lysine [^111In-labeled compound (Ia)]
radioactivity in high / low molecular weight fraction, kidney homogenate [2, 4]: mainly on the low molecular weight fraction side | release of serine in the kidney [2]: rapidly released serine in the kidney | organ distribution (SPECT/CT images) ([3]; 15.6 MBq/mouse): specifically accumulated in the kidney | accumulation site within the kidney (SPECT/CT images) [3]: mainly accumulated in the cortex part where proximal tubules and the like are present
